Results from PubChem BioAssay AID488896 (Broad Institute, 2010).
The list shows a part of the results, in another mix than the full data. Active and inactive are the calls of the source.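 Rule for the calls: active = mean replicate inhibition of at least 70% and a set share of replicates each scoring 70 or more; inconclusive = meets just one of the two criteria; inactive = fails both criteria.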

Protein sequences, listed by entry. Tags and fused reporters are not part of them. Lines headed by an entry give the natural chain unless they say otherwise; changes in a name come on top.
UniProt Q61009: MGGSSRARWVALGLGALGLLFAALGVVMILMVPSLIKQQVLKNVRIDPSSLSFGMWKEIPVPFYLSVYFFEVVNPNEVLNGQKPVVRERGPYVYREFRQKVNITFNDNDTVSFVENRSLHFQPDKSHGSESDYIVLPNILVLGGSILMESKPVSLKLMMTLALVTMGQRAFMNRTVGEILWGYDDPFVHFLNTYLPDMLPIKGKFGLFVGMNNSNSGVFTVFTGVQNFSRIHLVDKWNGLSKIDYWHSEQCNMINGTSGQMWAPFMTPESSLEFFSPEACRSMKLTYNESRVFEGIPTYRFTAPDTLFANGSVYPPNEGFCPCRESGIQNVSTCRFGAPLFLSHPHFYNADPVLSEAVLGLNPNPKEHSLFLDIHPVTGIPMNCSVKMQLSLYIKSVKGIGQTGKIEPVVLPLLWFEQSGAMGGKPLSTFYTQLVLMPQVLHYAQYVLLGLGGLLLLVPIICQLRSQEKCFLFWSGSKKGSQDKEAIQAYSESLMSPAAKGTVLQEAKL

biological target: Scavenger receptor class B member 1 (Mus musculus) (UniProt Q61009); assay: inhibitors of SR-BI mediated HDL lipid uptake, primary screen, ldlA[mSR-BI] cells, fluorescence, single point (AID 488896); details: ldlA[mSR-BI] CHO cells, DiI-HDL uptake fluorescence, 3 h; at 12.5 µM; hits give high values;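 note: 0% = median of neutral control wells and 100% = median of positive control wells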

Row | Structure (SMILES) | inhibition
1 | O=[N+]([O-])c1ccc(Nc2ccc(Oc3ccc([N+](=O)[O-])cc3[N+](=O)[O-])cc2)c([N+](=O)[O-])c1 | inactive: -8.64%
2 | O=P(Nc1ccccn1)(c1cccc2ccccc12)c1cccc2ccccc12 | inactive: 0.121%
3 | Cc1cc(SC(NC=O)C(Cl)(Cl)Cl)ncn1 (stereo not given) | inactive: -11.3%
4 | CCOC(=O)Nc1cccc([As](=O)(O)O)c1 | inactive: -21%
5 | CCCCOc1ccc(C(=O)NCC2(N3CCCCC3)CCCCC2)cc1OC | inactive: -6.27%
6 | Cc1cc(SC(NC(=O)c2ccccc2)C(Cl)(Cl)Cl)nc(C(C)C)n1 (stereo not given) | inactive: -15.8%
7 | CC1CCNP(=O)(N(CCCl)CCCl)O1 (stereo not given) | inactive: -16.2%
8 | CCOC(=O)Nc1ccc([As](=O)(O)O)c(O)c1 | inactive: 7.21%
9 | CCC(C)N(CC(C)C)C(=S)SC(NC(C)=O)C(Cl)(Cl)Cl (stereo not given) | inactive: 27.5%
10 | CCOC(=O)c1ccc(NC(=O)C(C)(CCl)SC)cc1 (stereo not given) | inactive: 4.36%
11 | O=C(OC1CN2CCC1CC2)c1cccc([N+](=O)[O-])c1 (stereo not given) | inactive: -8.06%
12 | O=C(Nc1ccncc1[N+](=O)[O-])c1ccc([N+](=O)[O-])cc1[N+](=O)[O-] | inactive: -6.42%
13 | COP1(=S)c2c(C)nn(CCC#N)c2N=C(c2ccc(F)cc2)N1C (stereo not given) | inactive: 20.1%
14 | COc1ccc(N/C(=N/P(=O)(N2CCOCC2)N2CCOCC2)N2CCOCC2)cc1 | inactive: -26.5%
15 | O=[N+]([O-])c1cc(Oc2ccc([N+](=O)[O-])cc2C(F)(F)F)cc([N+](=O)[O-])c1 | inactive: 40.3%
16 | COc1ccc2nc(NP(=O)(c3ccccc3)c3ccccc3)sc2c1 | inactive: 3.04%
17 | COc1cc(I)ccc1[As](=O)(O)O | inactive: 5.99%
18 | O=P1(N(CCCl)CCCl)OCCCN1CCCl (stereo not given) | inactive: -0.976%
19 | O=P1(N(CCCl)CCCl)Nc2ccccc2N1 | inactive: -25.2%
20 | O=C(OC1CN2CCC1CC2)C12CC3CC(CC(C3)C1)C2 (stereo not given) | inactive: 0.382%
21 | Cc1cc(=O)[nH]c(N[N+](=O)[O-])n1 | inactive: -3.21%
22 | Cc1c2c(nc3ccccc13)SC(C(Cl)Cl)C2 (stereo not given) | inactive: 3.33%
23 | CCN(CC)C(=S)SC(NC=O)C(Cl)(Cl)Cl (stereo not given) | inactive: -5.71%
24 | O=C(OC1CN2CCC1CC2)c1cccc2[nH]cnc12 (stereo not given) | inactive: -9.54%
25 | CC(C)NC(=O)NP(=O)(Oc1ccccc1)Oc1ccccc1 | inactive: 1.72%

Row | Structure (SMILES) | inhibition
26 | O=[N+]([O-])c1cc([N+](=O)[O-])c(-c2ccn[nH]2)s1 | inactive: -14.1%
27 | CC(C)c1ccc(OP(=O)(Nc2ccccn2)Oc2ccccc2F)cc1 (stereo not given) | inactive: -12.9%
28 | COC(=O)C1(C)COP(=O)(N2CCCCCC2)OC1 (stereo not given) | inactive: -17.3%
29 | ClCCSc1nnc(-c2cccnc2)o1 | inactive: -15.3%
30 | Cc1ccc2nc3c(c(C)c2c1)CC(C(Cl)Cl)S3 (stereo not given) | inactive: 5.32%
31 | Cc1ccc(OP(=O)(Nc2ccc([N+](=O)[O-])cn2)Oc2ccc(C)cc2)cc1 | inactive: -8.77%
32 | O=[As](O)(c1ccc(O)cc1)c1ccccc1O | inactive: -35.6%
33 | C[As](=O)(O)c1cccc(C(=O)O)c1 | inactive: -11.3%
34 | COc1cc(C(=O)NCC2(N3CCOCC3)CCCCC2)ccc1OCC(C)C | inactive: 21.6%
35 | O=[N+]([O-])c1ccc(-c2cc([N+](=O)[O-])c(O)c([N+](=O)[O-])c2)cc1 | inactive: -14.2%
36 | CN(C)C(=O)c1cc([N+](=O)[O-])cc2c1-c1c(cc([N+](=O)[O-])cc1[N+](=O)[O-])C2=O | inactive: 5.49%
37 | O=[N+]([O-])c1ccc2c(c1)nnn2O | inactive: -3%
38 | CN(C(=O)Cc1ccc(Cl)c(Cl)c1)[C@H]1CC[C@@]2(CCCO2)C[C@@H]1N1CCCC1 | inactive: -12.4%
39 | N#CCCN(C(=O)COC(=O)C(O)(c1ccccc1)c1ccccc1)c1ccc(F)cc1 | inactive: -5.9%
40 | CCOP1(=S)c2c(C)nn(CCC#N)c2N=C(c2ccc(F)cc2)N1C (stereo not given) | inactive: 27.3%
41 | CN(C(=O)Cc1ccccc1)[C@@H]1CC[C@]2(CCCO2)C[C@H]1N1CCCC1 | inactive: 3.6%
42 | NC(=O)Nc1ccc([As](=O)(O)O)cc1 | inactive: -5.85%
43 | Nc1ccccc1[As](=O)(O)c1ccccc1 | inactive: -7.39%
44 | O=C(O)COc1ccc([As](=O)(O)O)cc1[N+](=O)[O-] | inactive: 1.32%
45 | CCOP1(=S)c2c(C)nn(CCC#N)c2N=C(c2ccccc2F)N1C (stereo not given) | inactive: 15.4%
46 | O=P(Nc1nccs1)(c1ccccc1)c1nc2ccccc2s1 (stereo not given) | inactive: 10.4%
47 | O=P(Nc1nccs1)(Oc1ccccc1)Oc1ccccc1 | inactive: -8.19%
48 | COc1cc(C2NCCC3(OCCO3)C2(C)C)cc(OC)c1OC (stereo not given) | inactive: -6.93%
49 | CCOP(=O)(Nc1cccc2ccccc12)OCC | inactive: 4.58%
50 | CCCOP(=S)(Nc1nc(N)cc(=O)[nH]1)OCCC | inactive: -31.9%

Row | Structure (SMILES) | inhibition
51 | Nc1cccc2c([As](=O)(O)O)cccc12 | inactive: 70%
52 | O=[As](O)(c1cccc(O)c1)c1cccc(O)c1 | inactive: 3.64%
53 | Cc1cccc(OCC(=O)OC2CN3CCC2CC3)c1 (stereo not given) | inactive: -28.3%
54 | COc1cc(C(=O)NCC2(N3CCOCC3)CCCCC2)cc(Cl)c1OC(C)C | inactive: 25.4%
55 | O=[As](O)(O)c1cccnc1 | inactive: -22.2%
56 | CS(=O)(=O)c1ccc(Cl)c(NC(=O)COC(=O)C(O)(c2ccccc2)c2ccccc2)c1 | inactive: 23.8%
57 | O=C(OC1CN2CCC1CC2)c1ccc(Cl)cc1 (stereo not given) | inactive: -5.91%
58 | CC1(CBr)Cn2c(nc3ccccc3c2=O)S1 (stereo not given) | inactive: -10%
59 | CC(C)/C=N\N=C(\N)N[N+](=O)[O-] | inactive: 2.89%
60 | CN(C(=O)Cc1ccc(Cl)c(Cl)c1)[C@@H]1CCCC[C@H]1N1CCCC1 | inactive: -3.54%
61 | COc1ccccc1CNC(=O)COC(=O)C(O)(c1ccccc1)c1ccccc1 | inactive: 2.54%
62 | Clc1n[nH]nc1-c1nn[nH][15n]1 | inactive: -15.6%
63 | CC(C)(C)C(=O)NC(Sc1ncccn1)C(Cl)(Cl)Cl (stereo not given) | inactive: -5.07%
64 | CCOP(=O)(Nc1ccc(C)cn1)OCC | inactive: -17.8%
65 | O=P1(Nc2ccccn2)COc2ccccc2OC1 | inactive: -5.59%
66 | CCC1=CC2Cc3nc4ccc(Cl)cc4c(N)c3C(C1)C2 (stereo not given) | inactive: -11%
67 | CCOP(=O)(NC(=NC(C)c1ccccc1)NC(C)c1ccccc1)OCC (stereo not given) | inactive: 2.2%
68 | O=P1(Nc2ccc(Br)cn2)COc2ccccc2OC1 | inactive: -8.65%
69 | NS(=O)(=O)c1cccc(NC(=O)COC(=O)C(O)(c2ccccc2)c2ccccc2)c1 | inactive: 2.74%
70 | O=[As](O)(c1cccs1)c1cccs1 | inactive: -15.6%
71 | Nc1cccc([As](=O)(O)c2ccccc2)c1 | inactive: -22.4%
72 | O=P1(Nc2ncccn2)COc2ccccc2OC1 | inactive: 29.9%
73 | O=C(/C=C/c1ccccc1)OC1CN2CCC1CC2 (stereo not given) | inactive: -5.84%
74 | CCCC1OP(=O)(Nc2ccccc2)OCC1CC (stereo not given) | inactive: -5.51%
75 | CN(C)C1(CNC(=O)c2ccc(S(C)(=O)=O)cc2)CCCCC1 | inactive: -7.09%

Row | Structure (SMILES) | inhibition
76 | Cc1nn(-c2ccccc2)c2c1P(=O)(N1CCOCC1)N(C)C(c1ccccc1)=N2 (stereo not given) | inactive: -22.1%
77 | CC1CCC(C(C)C)C(OP(=O)(Nc2ccccn2)c2ccccc2)C1 (stereo not given) | inactive: -9.44%
78 | Cc1ccc(C(=O)OC2CN3CCC2CC3)cc1 (stereo not given) | inactive: -47%
79 | C(Cc1nn[nH]n1)Cc1nn[nH]n1 | inactive: 4.24%
80 | O=C(OC1CN2CCC1CC2)c1cccc(Cl)c1 (stereo not given) | inactive: 1.36%
81 | O=[N+]([O-])c1ccc(O)c(/C=N/Nc2ccc([N+](=O)[O-])cc2[N+](=O)[O-])c1 | inactive: -0.939%
82 | CC(=O)NC(SC(=S)N(C)C)C(Cl)(Cl)Cl (stereo not given) | inactive: -9.66%
83 | O=[As](O)(c1ccccc1)c1ccc(O)cc1 | inactive: 7.62%
84 | C[C@H]1OP(=O)(Oc2ccccc2)[C@H](O)[C@H](O)[C@H]1N=[N+]=[N-] (stereo not given in full) | inactive: 3.91%
85 | COc1ccc(N)c([N+](=O)[O-])c1[N+](=O)[O-] | inactive: 6.89%
86 | O=P(Nc1ccccn1)(c1ccc(Br)cc1)c1ccc(Br)cc1 | inactive: -15.8%
87 | CN(C)C1(CNC(=O)c2ccc(Cl)c(S(N)(=O)=O)c2)CCCCC1 | inactive: -14.3%
88 | c1nnnn1CCn1cnnn1 | inactive: -0.532%
89 | CC(C)C(=O)NC(Sc1ccccc1)C(Cl)(Cl)Cl (stereo not given) | inactive: 6.22%
90 | O=P(Nc1nccs1)(c1ccccc1)c1ccccc1 | inactive: -6.46%
91 | CC(=O)Nc1ccc([As](=O)(O)O)c(O)c1 | inactive: -24.8%
92 | CC(=O)Nc1ccc(Oc2c([N+](=O)[O-])cc([N+](=O)[O-])cc2[N+](=O)[O-])cc1 | inactive: -10%
93 | N#C/C(=C\c1ccc(N(CCBr)CCBr)cc1)C(N)=O | inactive: 9.04%
94 | CC(=O)c1ccc(N2CC2c2ccncc2)cc1 (stereo not given) | inactive: 9.31%
95 | COC(=O)C1(C)COP(=O)(NCc2ccccc2)OC1 (stereo not given) | inactive: -12.2%
96 | Cc1ccccc1CN(C)C(=O)COC(=O)C(O)(c1ccccc1)c1ccccc1 | inactive: -16.9%
97 | C[C@@H]1C=CCP(=O)(Oc2ccccc2)O1 (stereo not given in full) | inactive: -15%
98 | C[C@H]1OP(=O)(Oc2ccccc2)C[C@@H]2O[C@@H]21 (stereo not given in full) | inactive: 8.59%
99 | CCc1cc(O)c([N+](=O)[O-])c(C)c1[N+](=O)[O-] | inactive: -13.2%
100 | CC(C)(C)C(=O)NC(Sc1ccccc1)C(Cl)(Cl)Cl (stereo not given) | inactive: -15.9%
